Data reported in ChEMBL document CHEMBL3351655, “Scaffold decoration at positions 5 and 8 of 1,2,4-triazolo[1,5-c]pyrimidines to explore the antagonist profiling on adenosine receptors: a preliminary structure-activity relationship study” (J Med Chem, 2014).

Target: T1, Adenosine receptor A2b (Homo sapiens) (UniProt P29275)
T1 sequence (whole entry): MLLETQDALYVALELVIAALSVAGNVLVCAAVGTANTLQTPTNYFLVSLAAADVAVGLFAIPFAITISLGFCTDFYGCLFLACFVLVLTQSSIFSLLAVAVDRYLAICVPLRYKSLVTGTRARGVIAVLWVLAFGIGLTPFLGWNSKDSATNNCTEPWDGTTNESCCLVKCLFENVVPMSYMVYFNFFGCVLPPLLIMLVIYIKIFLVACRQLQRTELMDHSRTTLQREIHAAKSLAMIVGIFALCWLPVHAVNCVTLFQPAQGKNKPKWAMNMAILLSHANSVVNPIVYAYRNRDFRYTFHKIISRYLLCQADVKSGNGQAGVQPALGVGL
Assay: Binding affinity to human adenosine A2B receptor

With Nc1nc(NCCc2ccc(O)cc2)nc2nc(-c3ccco3)nn12 the Activity was 28 nM.
